# Experimental data as given in PubChem BioAssay AID1906 (The Scripps Research Institute Molecular Screening Center, 2009).
# This is a selection; strong and weak results do not stand in their true shares. The source made the active and inactive calls.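 How the source made its calls: active means inhibition above the mean of all tested compounds plus 3 SD, set per screening campaign (cut at about 17% in these data); inactive means the rest.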
# Test system: cathepsin L1 (Fasciola hepatica)
# Assay: Fasciola hepatica cathepsin L1 inhibitors, primary screen, counter-screen for PFM18AAP inhibitor project, biochemical, QFRET, fluorogenic peptide substrate (AID 1906);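 further: 0% = plate median of test compound wells and 100% = 1 µM Z-Phe-Ala-diazomethylketone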
# Settings: recombinant F. hepatica cathepsin L1, Z-Leu-Arg-MCA fluorescence; at 5.96 µM; hits give high values
row,SMILES,inhibition
1,CC(=O)NC(SC(=S)N(C)C)C(Cl)(Cl)Cl (stereo unspecified),inactive: -2.75%
2,O=[N+]([O-])c1ncn(CCn2cnc([N+](=O)[O-])n2)n1,inactive: 2.56%
3,O=[N+]([O-])c1ccc(O)c(/C=N/Nc2ccc([N+](=O)[O-])cc2[N+](=O)[O-])c1,inactive: -3.21%
4,O=[As](O)(c1ccccc1)c1ccc(O)cc1,inactive: 0.76%
5,Nc1ccc([As](=O)(O)c2ccc([N+](=O)[O-])cc2)cc1,inactive: 2.81%
6,C(Cc1nn[nH]n1)Cc1nn[nH]n1,inactive: -0.43%
7,O=C(OC1CN2CCC1CC2)c1cccc(Cl)c1 (stereo unspecified),inactive: -0.3%
8,CN(C)C1(CNC(=O)c2ccc(Cl)c(S(N)(=O)=O)c2)CCCCC1,inactive: 0.07%
9,O=P(Nc1ccccn1)(c1ccc(Br)cc1)c1ccc(Br)cc1,inactive: -3.69%
10,O=P(Nc1nc2ccccc2s1)(c1ccccc1)c1ccccc1,inactive: 1.06%
11,C[C@H]1OP(=O)(Oc2ccccc2)[C@H](O)[C@H](O)[C@H]1N=[N+]=[N-] (stereo partly specified),inactive: 3.53%
12,O=P(Nc1nccs1)(c1ccccc1)c1ccccc1,inactive: -2.61%
13,CC(C)C(=O)NC(Sc1ccccc1)C(Cl)(Cl)Cl (stereo unspecified),inactive: 1.64%
14,c1nnnn1CCn1cnnn1,inactive: -1.99%
15,CC(=O)c1ccc(N2CC2c2ccncc2)cc1 (stereo unspecified),inactive: -1.62%
16,C[C@@H]1C=CCP(=O)(Oc2ccccc2)O1 (stereo partly specified),inactive: -0.72%
17,C[C@H]1OP(=O)(Oc2ccccc2)C[C@@H]2O[C@@H]21 (stereo partly specified),inactive: -1.63%
18,CC(=O)Nc1ccc([As](=O)(O)O)c(O)c1,inactive: 2.97%
19,CC(=O)Nc1ccc(Oc2c([N+](=O)[O-])cc([N+](=O)[O-])cc2[N+](=O)[O-])cc1,inactive: 3.08%
20,O=P1(Nc2nc3ccc(Cl)cc3s2)COc2ccccc2O1 (stereo unspecified),inactive: -5.2%
21,CCOc1ccc(C2=NCC(CBr)S2)cc1 (stereo unspecified),inactive: 2.67%
22,CC(C)(C)C(=O)NC(Sc1ccccc1)C(Cl)(Cl)Cl (stereo unspecified),inactive: 7.15%
23,COC(=O)c1cc2c(s1)N=C(c1ccccc1)N(C)P2(=O)N1CCOCC1 (stereo unspecified),inactive: -1%
24,CC(=O)NC(SC(=S)N(CC(C)C)CC(C)C)C(Cl)(Cl)Cl (stereo unspecified),inactive: 1.1%
25,Cc1ccc(OP(=O)(Nc2ccccn2)Oc2ccc(C)cc2)cc1,inactive: 0.49%
26,O=C(OC1CN2CCC1CC2)c1ccccc1 (stereo unspecified),inactive: -5.21%

row,SMILES,inhibition
1,CCC(=O)N1C2C3N(C(=O)CC)C1C1N(C(=O)CC)C(C(N1C(=O)CC)N3C(=O)CC)N2C(=O)CC,inactive: 1.29%
2,Cc1ccccc1OP(=O)(Nc1ccccn1)Oc1ccccc1C,inactive: 4.62%
3,CN(C)C(=O)Oc1noc2ccccc12,inactive: 9.9%
4,O=C(NC1CCS(=O)(=O)C1)NP(=S)(Oc1ccccc1)Oc1ccccc1 (stereo unspecified),inactive: -4.66%
5,CCNC(=S)/N=C(\N)N[N+](=O)[O-],inactive: -2.43%
6,c1ccc(-c2nn[nH]n2)c(-c2nn[nH]n2)c1,inactive: -2.54%
7,Cc1ccc(NP(=O)(Oc2cccc(C)c2)Oc2cccc(C)c2)nc1,inactive: -2.37%
8,CCOC(=O)NC(Sc1ccccc1)C(Cl)(Cl)Cl (stereo unspecified),inactive: -2.48%
9,O=[N+]([O-])c1cc([N+](=O)[O-])c(CCN2CCOCC2)c([N+](=O)[O-])c1,inactive: -3.15%
10,CCN(N=Nc1nonc1N)c1nonc1N,inactive: -0.46%
11,O=C(O)c1ccccc1[As](=O)(O)O,inactive: 0.03%
12,CC(=O)Nc1ccc([As](=O)(O)O)cc1,inactive: 0.79%
13,O=P(Nc1nc2ccc(Cl)cc2s1)(c1ccccc1)c1ccccc1,inactive: -2.65%
14,CCOP(=O)(Nc1ccccc1)OCC,inactive: 5.45%
15,Cc1cc(SC(NC(=O)c2ccc(F)cc2)C(Cl)(Cl)Cl)ncn1 (stereo unspecified),inactive: 2.62%
16,CN(C(=O)Cc1ccc(Cl)c(Cl)c1)[C@H]1CCCC[C@@H]1N1CCCC1,inactive: 4.53%
17,Cc1ccc(NP(=O)(Oc2ccccc2F)Oc2ccccc2F)nc1,inactive: -0.25%
18,CC(C)CC(=O)NC(Sc1ccc(Cl)cc1)C(Cl)(Cl)Cl (stereo unspecified),inactive: -0.14%
19,Nc1cc(N)c2nonc2c1[N+](=O)[O-],inactive: 2.82%
20,Oc1ccccc1CNc1ccccn1,inactive: -6.72%
21,Cc1c2non([O-])c-2c(C)[n+](=O)[n+]1[O-],inactive: -1.29%
22,O=C(NC(Sc1ccncn1)C(Cl)(Cl)Cl)c1ccccc1 (stereo unspecified),inactive: 5.08%
23,NC(=O)c1cc([N+](=O)[O-])cc([N+](=O)[O-])c1N,inactive: -2.66%
24,CN(C(=O)Cc1ccc(Cl)c(Cl)c1)[C@H]1CCCC[C@H]1N1CCCC1,inactive: -1.56%
25,Cc1ccc(N/C(=N/P(=O)(N2CCOCC2)N2CCOCC2)N2CCOCC2)cc1,inactive: 3.48%
26,COc1ccccc1OP(=O)(Nc1ccc(C)cn1)Oc1ccccc1OC,inactive: 0.91%

row,SMILES,inhibition
1,Cc1ccc(OP(=O)(Nc2nccs2)Oc2ccc(C)cc2)cc1,inactive: -4.15%
2,Clc1ccc(Cl)c(NC2=NCC(CBr)S2)c1 (stereo unspecified),inactive: -2.03%
3,CN1CCCC(OC(=O)C(c2ccccc2)c2ccccc2)C1 (stereo unspecified),inactive: 1%
4,Nc1ccc([As](=O)(O)c2ccc(N)cc2)cc1,inactive: -0.86%
5,C[N+]1=C2C=CC=CC=C2SC12C([N+](=O)[O-])=CC([N+](=O)[O-])=C[C-]2[N+](=O)[O-] (stereo unspecified),inactive: 3.63%
6,CCN(/C(=N/P(=O)(N1CCOCC1)N1CCOCC1)N1CCOCC1)c1ccc(OC)cc1,inactive: -1.99%
7,CC(C)=N/N=C(\N)N[N+](=O)[O-],inactive: 1.17%
8,CN(C)C(=O)OCCc1n(C)cc[n+]1C,inactive: -0.99%
9,CC1CCN(C(=O)Oc2c(Cl)cc(Cl)c3cccnc23)CC1,inactive: 2.23%
10,COc1ccc(C2=NCC(CBr)S2)cc1 (stereo unspecified),inactive: -2.43%
11,CC(=O)N1C2C3N(C(C)=O)C1C1N(C(C)=O)C(C(N1C(C)=O)N3C(C)=O)N2C(C)=O,inactive: -2.53%
12,O=[N+]([O-])c1cccc2n[nH]nc12,inactive: -1.07%
13,Cc1ccc(NP(=O)(Oc2ccccc2)Oc2ccccc2)nc1,inactive: -6.97%
14,O=[N+]([O-])c1cc([N+](=O)[O-])c(CCNc2ccccc2)c([N+](=O)[O-])c1,inactive: 1.96%
15,CCc1nc2c(n1)c1c(non1O)c1c2no[n+]1[O-],inactive: 2.43%
16,CC(C)(C)C(=O)NC(Sc1ccncn1)C(Cl)(Cl)Cl (stereo unspecified),inactive: 2.4%
17,O=[N+]([O-])c1ncn(CCn2ncnc2[N+](=O)[O-])n1,inactive: 2.39%
18,O=[N+]([O-])c1cccc(NC2=NCC(CBr)S2)c1 (stereo unspecified),inactive: -1.26%
19,O=C(Nc1cc([As](=O)(O)O)ccc1O)c1ccccc1,inactive: 3.91%
20,CCOC(=O)Nc1cccc([As](=O)(O)O)c1,inactive: 1.46%
21,Cc1cc(SC(NC=O)C(Cl)(Cl)Cl)ncn1 (stereo unspecified),inactive: -2.42%
22,O=P(Nc1ccccn1)(c1cccc2ccccc12)c1cccc2ccccc12,inactive: 1.93%
23,CCOC(=O)Nc1ccc([As](=O)(O)O)c(O)c1,inactive: -0.53%
24,Cc1cc(SC(NC(=O)c2ccccc2)C(Cl)(Cl)Cl)nc(C(C)C)n1 (stereo unspecified),inactive: -0.93%
25,CCOC(=O)c1ccc(NC(=O)C(C)(CCl)SC)cc1 (stereo unspecified),inactive: -4.67%
26,O=C(OC1CN2CCC1CC2)c1cccc([N+](=O)[O-])c1 (stereo unspecified),inactive: 0.92%

row,SMILES,inhibition
1,CCC(C)N(CC(C)C)C(=S)SC(NC(C)=O)C(Cl)(Cl)Cl (stereo unspecified),inactive: 8.24%
2,COP1(=S)c2c(C)nn(CCC#N)c2N=C(c2ccc(F)cc2)N1C (stereo unspecified),inactive: 5.13%
3,O=C(COc1ccccc1)OC1CN2CCC1CC2 (stereo unspecified),inactive: 0.89%
4,O=C(Nc1ccncc1[N+](=O)[O-])c1ccc([N+](=O)[O-])cc1[N+](=O)[O-],inactive: 3.59%
5,COc1ccc(N/C(=N/P(=O)(N2CCOCC2)N2CCOCC2)N2CCOCC2)cc1,inactive: 0.78%
6,O=C(OC1CN2CCC1CC2)C12CC3CC(CC(C3)C1)C2 (stereo unspecified),inactive: 1.84%
7,Cc1cc(=O)[nH]c(N[N+](=O)[O-])n1,inactive: 2.35%
8,Cc1c2c(nc3ccccc13)SC(C(Cl)Cl)C2 (stereo unspecified),inactive: 2.04%
9,COc1ccc2nc(NP(=O)(c3ccccc3)c3ccccc3)sc2c1,inactive: -2.42%
10,COc1cc(I)ccc1[As](=O)(O)O,inactive: -0.6%
11,CC(C)c1ccc(OP(=O)(Nc2ccccn2)Oc2ccccc2F)cc1 (stereo unspecified),inactive: 4.3%
12,ClCCSc1nnc(-c2cccnc2)o1,inactive: 10.6%
13,CCN(CC)C(=S)SC(NC=O)C(Cl)(Cl)Cl (stereo unspecified),inactive: 3.68%
14,CC(C)NC(=O)NP(=O)(Oc1ccccc1)Oc1ccccc1,inactive: 5.26%
15,O=[N+]([O-])c1cc([N+](=O)[O-])c(-c2ccn[nH]2)s1,inactive: -1.46%
16,C[As](=O)(O)c1cccc(C(=O)O)c1,inactive: -5.89%
17,O=[As](O)(c1ccc(O)cc1)c1ccccc1O,inactive: -2.45%
18,Cc1ccc2nc3c(c(C)c2c1)CC(C(Cl)Cl)S3 (stereo unspecified),inactive: -3.99%
19,Cc1ccc(OP(=O)(Nc2ccc([N+](=O)[O-])cn2)Oc2ccc(C)cc2)cc1,inactive: -1.54%
20,NC(=O)Nc1ccc([As](=O)(O)O)cc1,inactive: 1.01%
21,CN(C)C(=O)c1cc([N+](=O)[O-])cc2c1-c1c(cc([N+](=O)[O-])cc1[N+](=O)[O-])C2=O,inactive: 8%
22,O=[N+]([O-])c1ccc2c(c1)nnn2O,inactive: 1.31%
23,CN(C(=O)Cc1ccc(Cl)c(Cl)c1)[C@H]1CC[C@@]2(CCCO2)C[C@@H]1N1CCCC1,inactive: 4.29%
